For assay [1], the target named is T1, nectin-2 Ig2 domain-deficient protein (human, UniProt Q92692 32-538).
T1 construct: also called delta-Ig2; Nectin-2ΔIg2
T1 sequence: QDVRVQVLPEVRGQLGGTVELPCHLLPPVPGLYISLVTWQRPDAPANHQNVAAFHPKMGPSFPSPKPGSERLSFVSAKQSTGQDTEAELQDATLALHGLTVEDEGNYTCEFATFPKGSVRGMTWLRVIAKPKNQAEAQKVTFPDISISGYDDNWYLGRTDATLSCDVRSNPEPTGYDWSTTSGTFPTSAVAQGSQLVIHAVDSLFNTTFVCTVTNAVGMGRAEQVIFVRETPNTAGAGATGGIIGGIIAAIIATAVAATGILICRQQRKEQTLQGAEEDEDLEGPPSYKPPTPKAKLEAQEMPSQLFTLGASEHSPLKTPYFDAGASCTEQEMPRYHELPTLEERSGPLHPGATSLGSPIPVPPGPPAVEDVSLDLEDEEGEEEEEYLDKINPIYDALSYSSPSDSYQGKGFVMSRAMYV
The experiment in a line: FCM, CHO-K1 transient.

The chains behind the UniProt entries cited, without tags or fusion partners. Residues count along the entry.
UniProt Q9NQS3, 58-549 limits assumed: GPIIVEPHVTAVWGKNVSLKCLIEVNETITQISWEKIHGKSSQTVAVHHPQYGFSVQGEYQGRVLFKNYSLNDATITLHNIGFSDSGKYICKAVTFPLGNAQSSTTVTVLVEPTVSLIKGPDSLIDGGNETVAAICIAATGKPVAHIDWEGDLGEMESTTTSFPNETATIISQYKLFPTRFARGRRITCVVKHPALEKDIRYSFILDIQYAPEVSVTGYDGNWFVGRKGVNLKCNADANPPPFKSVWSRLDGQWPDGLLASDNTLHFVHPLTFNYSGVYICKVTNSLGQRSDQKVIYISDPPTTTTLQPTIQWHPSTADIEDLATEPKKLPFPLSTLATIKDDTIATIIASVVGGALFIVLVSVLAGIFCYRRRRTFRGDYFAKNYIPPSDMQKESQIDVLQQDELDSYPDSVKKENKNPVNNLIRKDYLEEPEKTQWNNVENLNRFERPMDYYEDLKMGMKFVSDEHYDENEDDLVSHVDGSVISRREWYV

Assay [2] concerns the target T1, nectin-2 Ig2 domain-deficient protein. The experiment in a line: FCM, CHO-K1 transient. The source holds these as a separate data set.
The target of another assay is T2, human nectin-1 protein (human, UniProt Q15223 31-517).
T2 construct: transient on CHO-K1 from pCMV-Tag4-Nectin-1
T2 sequence: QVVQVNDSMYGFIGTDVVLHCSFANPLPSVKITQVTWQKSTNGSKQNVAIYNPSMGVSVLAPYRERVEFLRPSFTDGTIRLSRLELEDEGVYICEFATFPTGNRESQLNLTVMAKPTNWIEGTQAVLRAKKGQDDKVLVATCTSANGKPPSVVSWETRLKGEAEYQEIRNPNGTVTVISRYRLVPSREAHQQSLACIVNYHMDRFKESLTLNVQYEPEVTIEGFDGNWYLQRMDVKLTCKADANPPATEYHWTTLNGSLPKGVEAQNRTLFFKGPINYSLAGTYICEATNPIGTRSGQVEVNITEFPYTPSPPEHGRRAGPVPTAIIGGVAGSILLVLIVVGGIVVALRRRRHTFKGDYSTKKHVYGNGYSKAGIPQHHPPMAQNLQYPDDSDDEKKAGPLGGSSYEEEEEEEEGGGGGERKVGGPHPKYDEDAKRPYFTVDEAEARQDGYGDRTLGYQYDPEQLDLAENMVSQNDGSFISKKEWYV
The experiment in a line: FCM, CHO-K1 transient vs mock.

Another assay deals with T3, human nectin-4 protein (human, UniProt Q96NY8 32-510).
T3 construct: transient on CHO-K1 from pCMV-Tag4-Nectin-4
T3 sequence: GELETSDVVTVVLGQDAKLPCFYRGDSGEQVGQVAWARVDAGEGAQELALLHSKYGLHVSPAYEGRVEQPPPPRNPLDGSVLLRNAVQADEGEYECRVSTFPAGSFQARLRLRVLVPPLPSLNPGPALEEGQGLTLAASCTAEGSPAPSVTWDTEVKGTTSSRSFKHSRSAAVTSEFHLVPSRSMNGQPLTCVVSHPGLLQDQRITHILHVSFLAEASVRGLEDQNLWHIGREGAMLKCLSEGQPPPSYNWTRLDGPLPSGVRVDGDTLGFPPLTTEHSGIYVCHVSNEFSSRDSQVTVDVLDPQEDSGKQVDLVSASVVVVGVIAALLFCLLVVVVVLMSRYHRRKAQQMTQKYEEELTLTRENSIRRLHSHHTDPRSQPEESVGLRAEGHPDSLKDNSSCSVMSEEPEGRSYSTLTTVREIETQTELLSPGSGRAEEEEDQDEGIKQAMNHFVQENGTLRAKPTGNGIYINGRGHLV
The experiment in a line: FCM, CHO-K1 transient vs mock.

The next assay has as its target T4, human Nec1-5 protein (human, UniProt P15151 21-417).
T4 construct: transient on CHO-K1 from pCMV-Tag4-Nec1-5; also called Necl-5
T4 sequence: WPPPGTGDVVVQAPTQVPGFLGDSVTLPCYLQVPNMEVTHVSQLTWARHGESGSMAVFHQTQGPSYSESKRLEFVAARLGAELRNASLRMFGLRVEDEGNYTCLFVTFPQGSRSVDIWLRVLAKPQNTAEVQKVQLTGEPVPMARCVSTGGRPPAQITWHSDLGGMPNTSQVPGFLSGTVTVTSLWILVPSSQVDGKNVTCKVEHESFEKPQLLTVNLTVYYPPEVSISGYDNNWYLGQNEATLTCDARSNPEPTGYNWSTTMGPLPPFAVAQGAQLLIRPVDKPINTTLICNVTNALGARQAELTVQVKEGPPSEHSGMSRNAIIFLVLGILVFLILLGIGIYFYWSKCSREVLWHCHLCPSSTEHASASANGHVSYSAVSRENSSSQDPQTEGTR
The experiment in a line: FCM, CHO-K1 transient vs mock.

In another assay the target is T5, human nectin-3 protein (human, UniProt Q9NQS3 58-549).
T5 construct: transient on CHO-K1 from pCMV-Tag4-Nectin-3
The experiment in a line: FCM, CHO-K1 transient vs mock.

Median fluorescence ratio data for two molecules are collected here from US20090142346A1 (Takeda / Millennium, published 2009).

Where two headings read alike, the source gives them in different places.

B1: Nec1-803-2 (antibody, human IgG1, V domains shown)
VH: QVQLQESGPGLVKPSETLSLTCTVSGGSISSYYWTWIRQPPGKGLEWIGYIYYSGSTNSNPSLKSRVTISVDTSKNQFSLKLSSVTAADTAVYYCTRDPGEDYNYGMDVWGQGTTVTVSS
VL: AIQLTQSPSSLSASVGDRVTITCRASQGISSALAWYQQKPGKAPKLLIYDASSLESGVPSRFSGSGSGTDFTLTISSLQPEDFATYYCQQFNSYPRTFGQGTKVEIK
notes: human IgG1/k; also called Nec1-803-3
Consider B1, for which the median fluorescence ratio came to 5.3 ratio in assay [1]; 6.2 ratio in assay [2]; 1.2 ratio in the assay with human nectin-1 protein; 1.1 ratio with human nectin-4 protein; 1.1 ratio with human Nec1-5 protein; 1.2 ratio in the assay with human nectin-3 protein.

B2: Nec1-834-1 (antibody, human IgG1, V domains shown)
VH: QVQLQESGPGLVKPSETLSLTCTVSSASISSYYWSWIRQPPGKGLEWIGYIYYSGSTNYNPSLKSRVTISIDTSKNQFSLKLSSVTAADTAVYYCARDAGEDYSYGMDVWGQGTTVTVSS
VL: AIQLTQSPSSLSASVGDRVTITCRASQGISSALAWYQQKPGKAPKLLIYDASSLESGVPSRFSGSGSGTDFTLTISSLQPEDFATYYCQQFNSYRTFGQGTKVEIK
notes: human IgG1/k
For B2, the median fluorescence ratio with human nectin-1 protein amounted to 1.2 ratio; with human nectin-4 protein, 1.1 ratio; with human Nec1-5 protein, 1 ratio; in the assay with human nectin-3 protein, 1.2 ratio.
